# Measurements from patent US6534629B1, “Nematode-extracted serine protease inhibitors and anticoagulant proteins” (priority 1994, dated 2003).
# B1: AcaNAPc2: NAP of Ancylostoma caninum isolated by phage display, SEQ. ID. NO. 59; fVIIa/TF inhibitor (protein)
# chain: KATMQCGENEKYDSCGSKECDKKCKYDGVEEEDDEEPNVPCLVRVCHQDCVCEEGFYRNKDDKCVSAEDCELDNMDFIYPGTRN
# Tested on: normal citrated human plasma
# Assay: Activated partial thromboplastin time (aPTT) assay
# Assay type: biochemical
# Settings: concentration that doubled the control clotting time (28.5 seconds) of normal human plasma
# Description: The ex vivo anticoagulant effects of NAPs of the present invention in human plasma were evaluated by measuring the prolongation of the activated partial thromboplastin time (aPTT) and prothrombin time (PT) over a broad concentration range of each inhibitor.
# Fresh frozen pooled normal citrated human plasma was obtained from George King Biomedical, Overland Park, Kans. Respective measurements of aPTT and PT were made using the Coag-A-Mate RA4 automated coagulometer (General Diagnostics, Organon Technica, Oklahoma City, Okla.) using the Automated aPTT Platelin® reagent (Organon Technica, Durham, N.C.) and Simplastin® Excel (Organon Technica, Durham, N.C.) respectively, as initiators of clotting according to the manufacturer's instructions.
# The assays were conducted by making a series of dilutions of each tested NAP in rapidly thawed plasma followed by adding 200 microliters or 100 microliters of the above referenced reagents to the wells of the assay carousel for the aPTT or PT measurements, respectively. […]
# Concentrations of NAP were plotted against clotting time, and a doubling time concentration was calculated, i.e., a specified concentration of NAP that doubled the control clotting time of either the PT or the aPTT. […]
molecule,measurement,value
B1,Doubling Concentration (nM) in the aPTT,105 ± 11 nM
